Experimental data as given in PubChem BioAssay AID504322 (Emory University Molecular Libraries Screening Center, 2011).

Test system: CHOP reporter cell assay, percent of control
Assay: CHOP reporter inhibitor potency, dose response, cell-based (AID 504322);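 further: CHO cells carrying a CHOP reporter stimulated with tunicamycin to induce ER stress; potency is for inhibition of the stress-induced reporter signal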

Q: `CN[C@H]1C[C@H]2O[C@@](C)([C@H]1OC)n1c3ccccc3c3c4c(c5c6ccccc6n2c5c31)C(=O)NC4` was tested. Which IC50 did it give?
A: Its IC50 is < 160 nM.

Q: For `CCCCCCCCNC(C)C(O)c1ccc(SC(C)C)cc1` (configuration not stated), which IC50 is on record?
A: Its IC50 is 2530 nM.
